According to patent publication US20080269114A1, “Y4 Selective Receptor Agonists For Thereapeutic Interventions” (priority 2004, published 2008):

Experiments:
[1] = molecular target: human Y4 receptor (human), P50391; assay: cell-based or functional assay
[2] = molecular target: human Y4 receptor (human), P50391; assay: competition binding, displacement of 125I-PP, COS-7 cells with human Y4

- EC50, inositol phosphate turnover [1]: 4.6 nM
- IC50 [2]: 8.2 nM
Binder: ACLEPVYPGDNATPEQMAQYAADLRRCINMLTRPRY (modifications not checked) [[Cys2,D-Cys27]PP]
